In experiment [1] the target is T1, Aβ oligomer (Homo sapiens, UniProt P05067). In words: Flow cytometry on cerebrospinal fluid. The class given is binding. The settings on record: CSF diluted in HEPES-buffered saline. On the procedure: Cerebrospinal fluid (CSF) is obtained from a subject by either lumbar puncture or from a previously separated frozen sample (clinical collection). Peptide probe labeled with FITC (PEP-11) stored in organic solvent is brought to room temperature. The organic solvent is removed by rotovaporation or air evaporation. The CSF is diluted in HEPES-buffered saline and combined with the peptide probe solution. The resulting combination is stored in the dark at room temperature for up to an hour, in order to allow the labeled peptide probe to bind to any Aβ oligomer present in the first test sample.
The sample is subjected to a FACScan flow cytometer in TruCount Tubes. Any Aβ oligomer in the test sample is gated in logarithmic forward/side scatter dot plots, and the fluorescence of the FITC labels are detected by appropriate bandpass filters. Complexes comprising labeled peptide probe and Aβ oligomer are detected.
For orientation: A flow cytometer gives signals particle by particle.

Experiment [2] addresses T1, Aβ oligomer. Briefly: PLISA using PEP-11 peptide probes on Aβ monomer, oligomer and fiber. Format: binding. The source says:
Different aggregate forms of Aβ protein (monomer, oligomer, and fiber) are subjected to PLISA using different PEP-11 peptide probe (Pep11-a, Pep11-b and Pep11-ds) and a control sample without PEP-11 peptide probe. Both Pep11-a and Pep11-b consist of SEQ ID NO:64, at a purity of 86% (standard) and 95% (high), respectively, as determined by high performance liquid chromatography (200 nm, C18, linear gradient). PEP-11ds is also represented by SEQ ID NO:64, but has a disulfide bridge at the two cysteines. High performance liquid chromatography (200 nm, C18, linear gradient) determined the purity of PEP-11ds to be 86.46%.

In experiment [3] the target is T2, Aβ oligomer associated with erythrocytes (Homo sapiens, UniProt P05067).
T2 construct: from tissue; host or cells: whole blood, erythrocytes gated by flow cytometry
In words: Flow cytometry assay on erythrocytes in whole blood with FITC-labeled peptide probe. The class given is cell-based. The note with it: first samples (endogenous Aβ oligomer only); subject with Alzheimer's Disease vs normal subject. On the procedure:
A first sample containing whole blood is obtained from a subject by venipuncture and collected in EDTA tubes. Peptide probe labeled with FITC (PEP-11) stored in organic solvent is brought to room temperature. The organic solvent is then removed by rotovaporation or air evaporation. The first sample is then diluted in HEPES-buffered saline and subsequently combined with the peptide probe solution. The resulting combination is stored in the dark at room temperature for up to an hour, in order to allow the labeled peptide probe to bind to (e.g., associate with and/or form a complex with) any Aβ oligomer associated with cells present in the first test sample. A second sample containing whole blood is obtained in the same manner as described above. The second sample is then diluted in HEPES-buffered saline and subsequently combined with synthetic Aβ oligomer, allowing the synthetic Aβ oligomer to bind to cells (e.g., associate with and/or form a complex with) present in the second sample or any Aβ oligomer associated with the cells. […] The erythrocytes in the test samples are gated in logarithmic forward/side scatter dot plots, and the fluorescence of the FITC labels are detected by appropriate bandpass filters. […] The samples are processed and analyzed in accordance with the procedure in EXAMPLE 1.

Experiment [4] deals with T3, Aβ oligomer associated with platelets (Homo sapiens, UniProt P05067).
T3 construct: from tissue; host or cells: platelet rich plasma (platelets)
Briefly: Flow cytometry on platelets in platelet rich plasma. The class given is cell-based. The note with it: without and with synthetic Aβ oligomer. On the procedure: A first sample containing platelet rich plasma (PRP) is obtained by separating whole blood or from a frozen sample of previously separated whole blood. The first sample is verified to contain PRP by flow cytometry (e.g., by detecting CD-41 as a surface marker). Peptide probe labeled with FITC (PEP-11) stored in organic solvent is brought to room temperature. The organic solvent is removed by rotovaporation or air evaporation. The first sample is diluted in HEPES-buffered saline and subsequently combined with the peptide probe solution. The resulting combination is stored in the dark at room temperature for up to an hour, in order to allow the labeled peptide probe to bind to any Aβ oligomer associated with platelets present in the first sample. A second sample containing PRP is obtained in the same manner as described above. The second sample is diluted in HEPES-buffered saline and subsequently combined with synthetic Aβ oligomer, and the synthetic Aβ oligomer is allowed to bind to any Aβ oligomer associated with platelets present in the second sample. Peptide probe labeled with FITC (PEP-11) stored in organic solvent is brought to room temperature. […] The platelets in the test samples are gated in logarithmic forward/side scatter dot plots, and the fluorescence of the FITC labels are detected by appropriate bandpass filters.

As for “PEP-11: WT17-35 with FITC and d-Arginine at C-Terminal”, the “detection of complexes comprising labeled peptide probe and Aβ oligomer” value with Aβ oligomer [1] is given as “are detected”. In addition, in the experiment with Aβ oligomer [2], the “preferential detection/binding of Aβ oligomer as compared to Aβ monomer or fiber” value is on record as “preferentially binds to Aβ oligomer”. The “FITC signal (fluorescence intensity) of peptide probe-endogenous Aβ oligomer-erythrocyte complexes” value in experiment [3] is recorded as “great than that corresponding to the normal subject”. Also, in experiment [4], the “detection of labeled peptide probe-Aβ oligomer-platelet complexes” value is listed as “will be detected”.

The values above are taken from patent US10139419B2, “Methods for detecting Aβ oligomers” (SYSTEM OF SYSTEMS ANALYTICS, INC., priority 2014, dated 2018).
